Results as given in US7477053B2, “Detection of electromagnetic fields” (priority 1994, dated 2009).

System: pig liver chromatin

CNCCC(Oc1ccc(C(F)(F)F)cc1)c1ccccc1 (stereo not shown) [fluoxetine]
Metabolized by pig liver chromatin: +
